Test results reported in US12029739B2, “SHP2 inhibitor and use thereof” (KANAPH THERAPEUTICS INC., priority 2021, dated 2024).

The chains behind the UniProt entries cited, without tags or fusion partners.
UniProt Q06124, whole entry: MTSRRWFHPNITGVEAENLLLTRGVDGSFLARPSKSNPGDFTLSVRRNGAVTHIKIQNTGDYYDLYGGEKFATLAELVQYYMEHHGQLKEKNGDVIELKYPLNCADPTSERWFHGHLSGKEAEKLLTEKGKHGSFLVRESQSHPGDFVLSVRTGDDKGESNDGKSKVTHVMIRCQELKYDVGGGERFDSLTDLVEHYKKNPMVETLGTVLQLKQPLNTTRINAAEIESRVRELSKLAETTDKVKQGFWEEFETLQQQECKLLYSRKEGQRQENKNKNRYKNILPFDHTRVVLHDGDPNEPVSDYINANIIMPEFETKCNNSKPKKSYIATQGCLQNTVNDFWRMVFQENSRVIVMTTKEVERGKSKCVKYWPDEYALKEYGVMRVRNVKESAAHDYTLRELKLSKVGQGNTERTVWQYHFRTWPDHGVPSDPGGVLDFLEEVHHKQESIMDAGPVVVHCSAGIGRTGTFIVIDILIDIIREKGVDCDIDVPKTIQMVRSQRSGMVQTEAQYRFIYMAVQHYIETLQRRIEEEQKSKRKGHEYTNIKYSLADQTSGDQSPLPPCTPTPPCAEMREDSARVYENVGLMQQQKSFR

Target: T1, SHP2 (full length) (Homo sapiens, UniProt Q06124)
T1 construct: SHP2 (full length, diluted to 100 pM final concentration in reaction buffer, BPS bioscience, US); purchased BPS bioscience, US
Test: Phosphatase assay (PTPase assay) with DiFMUP substrate
Format: biochemical
Settings: IC50 (PTPase aS say, nM), SHP2 activated with SHP2 activating peptide; DiFMUP 80 μM, 2 hours; fluorescence

Question: `Cc1nc2ccc(Sc3cnc(N4CCC(C)(CN)CC4)cn3)c(Cl)c2c(=O)n1Cc1cccc(S(=O)(=O)F)c1` [Example 21, 3-((6-((5-(4-(aminomethyl)-4-methylpiperidin-1-yl)pyrazin-2-yl)thio)-5-chloro-2methyl-4-oxoquinazolin-3(4H)-yl)methyl)benzenesulfonyl fluoride] was tested. Which IC50 did it give?
Answer: 3 to 100 nM
